Protein sequences, listed by entry. Tags and fused reporters are not part of them. Lines headed by an entry give the natural chain unless they say otherwise; changes in a name come on top.
UniProt Q12809: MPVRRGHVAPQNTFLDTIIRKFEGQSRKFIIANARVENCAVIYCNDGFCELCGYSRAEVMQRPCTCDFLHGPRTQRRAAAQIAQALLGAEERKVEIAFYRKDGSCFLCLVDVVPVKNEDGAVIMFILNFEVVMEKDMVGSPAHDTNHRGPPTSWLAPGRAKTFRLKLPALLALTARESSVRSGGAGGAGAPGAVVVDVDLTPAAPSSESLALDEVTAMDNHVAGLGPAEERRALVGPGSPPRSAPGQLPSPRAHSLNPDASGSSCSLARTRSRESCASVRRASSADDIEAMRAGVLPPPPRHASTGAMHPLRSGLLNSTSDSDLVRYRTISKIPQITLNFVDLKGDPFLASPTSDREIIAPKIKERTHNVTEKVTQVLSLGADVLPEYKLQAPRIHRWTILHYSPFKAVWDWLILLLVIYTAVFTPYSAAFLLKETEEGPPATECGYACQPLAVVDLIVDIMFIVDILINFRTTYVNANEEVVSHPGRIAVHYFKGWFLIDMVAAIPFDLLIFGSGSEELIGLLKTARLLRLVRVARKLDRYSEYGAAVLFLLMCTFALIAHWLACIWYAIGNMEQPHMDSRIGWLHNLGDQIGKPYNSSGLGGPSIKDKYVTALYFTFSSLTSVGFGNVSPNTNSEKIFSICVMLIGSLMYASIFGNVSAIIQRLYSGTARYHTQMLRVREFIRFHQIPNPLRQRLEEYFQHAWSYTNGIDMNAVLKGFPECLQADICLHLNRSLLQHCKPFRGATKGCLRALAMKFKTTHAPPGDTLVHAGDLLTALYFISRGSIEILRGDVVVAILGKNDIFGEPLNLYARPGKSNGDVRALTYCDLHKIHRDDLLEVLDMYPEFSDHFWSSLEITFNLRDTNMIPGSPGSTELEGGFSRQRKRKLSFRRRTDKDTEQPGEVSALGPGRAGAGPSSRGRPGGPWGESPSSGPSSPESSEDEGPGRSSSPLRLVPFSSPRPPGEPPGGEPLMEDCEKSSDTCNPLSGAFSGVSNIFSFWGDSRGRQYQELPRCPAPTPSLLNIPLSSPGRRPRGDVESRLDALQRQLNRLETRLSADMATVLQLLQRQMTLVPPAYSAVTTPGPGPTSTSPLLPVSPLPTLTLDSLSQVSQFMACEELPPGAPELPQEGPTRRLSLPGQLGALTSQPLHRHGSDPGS

In article PMC4610231, “Treatment with a novel oleic-acid–dihydroxyamphetamine conjugation ameliorates non-alcoholic fatty liver disease in obese Zucker rats” (Disease Models & Mechanisms, 2015):

Biological target: T1, human ether-à-go-go related gene (hERG) K+ channel (Homo sapiens, UniProt Q12809)
T1 construct: gene KCNH2
Experiment: cell-based

In the case of CC(C)COCC(CN(Cc1ccccc1)c1ccccc1)N1CCCC1 (stereo not shown) [bepridil], the pIC50 was 5.66.

pIC50: −log10 of the molar value.
